The nature of data set [1]: in vivo. As to conditions: Sprague-Dawley, rat, po, 10 mg/kg.
The nature of data set [2]: physchem. As to conditions: octanol/water, pH 7.4.

Structures are written as SMILES.

In data set [1], `CCC(CC)O[C@@H]1C=C(C(=O)O)C[C@H](N)[C@H]1NC(C)=O` [OSELTAMIVIR CARBOXYLATE] showed a half-life of 10.6 h.
As to `CCOC(=O)C1=C[C@@H](OC(CC)CC)[C@H](NC(C)=O)[C@@H](N)C1` [OSELTAMIVIR], the logD at 24 h in data set [2] amounted to 0.36.

For the origin of these results see ChEMBL document CHEMBL2203066 (J Med Chem, 2012).
